Molecular target: Sigma non-opioid intracellular receptor 1 (Homo sapiens, UniProt Q99720)
Assay: Displacement of [3H](+)-pentazocine from human sigma 1 receptor in human Jurkat cell membranes incubated for 2 hrs by liquid scintillation counting

Chains of the proteins cited; added tags and fusions are not shown.
UniProt Q99720, whole entry: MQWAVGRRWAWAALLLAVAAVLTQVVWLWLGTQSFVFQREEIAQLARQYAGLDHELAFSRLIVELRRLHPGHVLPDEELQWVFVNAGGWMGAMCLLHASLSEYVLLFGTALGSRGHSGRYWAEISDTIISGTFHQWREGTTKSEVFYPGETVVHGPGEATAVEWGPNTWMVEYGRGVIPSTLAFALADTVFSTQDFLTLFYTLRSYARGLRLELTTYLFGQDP

Ki [nM] | Compound
7.1 | CN(CCCN1C(=O)[C@H]2Cc3ccccc3CN2C1=O)Cc1ccccc1
4.5 | CN(CCCN1C(=O)[C@@H]2Cc3ccccc3CN2C1=O)Cc1ccccc1

— ChEMBL document CHEMBL3352141, “Carboline- and phenothiazine-derivated heterocycles as potent SIGMA-1 protein ligands” (Eur J Med Chem, 2015)
